Values of other authors as cited in patent US7186797B2, “Polypeptide conjugates with extended circulating half-lives” (Epix Pharmaceuticals, Inc., priority 2001, dated 2007).

Conditions: unconjugated polypeptide drug, background statement; cited from earlier work

Substance | t1/2 [h]
interferon β: commercially important polypeptide-based drug currently in use | 1
interferon α-2b: commercially important polypeptide-based drug currently in use | 2
